Experimental data: ChEMBL document CHEMBL3352282, “Design and synthesis of novel azapeptide activators of apoptosis mediated by caspase-9 in cancer cells” (Bioorg Med Chem Lett, 2014)
The source made the active and inactive calls. The rule behind the calls is not given here.

Experiments:
MDA-MB-231 [1] = experiment: Induction of cell death in serum starved human MDA-MB-231 cells at 50 uM after 16 hrs by trypan blue dye exclusion assay; format: functional
Method in brief: (§1)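 Breast cancer line serum-starved 6 h, then exposed to compound (DMSO vehicle) for 16 h at a final 50 µM or 100 µM. Cells trypsinized, stained with Trypan blue and counted. Cell death expressed as percentage, relative to vehicle. Mean ± SEM of three independent experiments, paired comparison to DMSO control.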

MDA-MB-231 [2] = experiment: Induction of apoptosis in serum starved human MDA-MB-231 cells assessed as caspase-9 activation at 100 uM after 16 hrs by Western blotting method; format: functional, cell-based
Method in brief: (§2)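 MDA-MB-231 cells serum-starved 6 h, then exposed to DMSO vehicle, etoposide, AVPI-NH₂ or analogs at one final concentration (50 or 100 µM, per line), harvested; caspase-3 and caspase-9 activation assessed by Western blotting. Quantification as mean ± SEM of three independent experiments.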

MDA-MB-231 [3] = experiment: Induction of cell death in serum starved human MDA-MB-231 cells at 100 uM after 16 hrs by trypan blue dye exclusion assay; format: functional; method in brief: as §1
MDA-MB-231 [4] = experiment: Induction of apoptosis in serum starved human MDA-MB-231 cells assessed as caspase-3 activation at 100 uM after 16 hrs by Western blotting method; format: functional, cell-based; method in brief: as §2
MDA-MB-231 [5] = experiment: Induction of apoptosis in serum starved human MDA-MB-231 cells assessed as caspase-9 activation after 16 hrs by Western blotting method; format: functional, cell-based; settings: MDA-MB-231, 16 h
Method in brief: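 MDA-MB-231 cells serum-starved 6 h, treated 16 h across a concentration series (about 12.5–125 µM), harvested; total and cleaved caspase-9 immunoblotted and quantified. Mean ± SEM of two independent experiments; significance versus paired DMSO condition.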

## CC[C@H](C)[C@H](NC(=O)[C@@H]1CCCN1C(=O)[C@@H](NC(=O)[C@H](C)N)C(C)C)C(N)=O
MDA-MB-231 [1]
  Activity: 11.5%
MDA-MB-231 [2]
  Activity: Active
MDA-MB-231 [3]
  Activity: 50%
MDA-MB-231 [4]
  Activity: Active
MDA-MB-231 [5]
  EC50: 72.7 µM
